By UniProt entry, the sequences of proteins in these tests, tags left out. Where a name states a change or a piece, a line headed by the entry shows the natural chain unless it says otherwise.
UniProt Q06187: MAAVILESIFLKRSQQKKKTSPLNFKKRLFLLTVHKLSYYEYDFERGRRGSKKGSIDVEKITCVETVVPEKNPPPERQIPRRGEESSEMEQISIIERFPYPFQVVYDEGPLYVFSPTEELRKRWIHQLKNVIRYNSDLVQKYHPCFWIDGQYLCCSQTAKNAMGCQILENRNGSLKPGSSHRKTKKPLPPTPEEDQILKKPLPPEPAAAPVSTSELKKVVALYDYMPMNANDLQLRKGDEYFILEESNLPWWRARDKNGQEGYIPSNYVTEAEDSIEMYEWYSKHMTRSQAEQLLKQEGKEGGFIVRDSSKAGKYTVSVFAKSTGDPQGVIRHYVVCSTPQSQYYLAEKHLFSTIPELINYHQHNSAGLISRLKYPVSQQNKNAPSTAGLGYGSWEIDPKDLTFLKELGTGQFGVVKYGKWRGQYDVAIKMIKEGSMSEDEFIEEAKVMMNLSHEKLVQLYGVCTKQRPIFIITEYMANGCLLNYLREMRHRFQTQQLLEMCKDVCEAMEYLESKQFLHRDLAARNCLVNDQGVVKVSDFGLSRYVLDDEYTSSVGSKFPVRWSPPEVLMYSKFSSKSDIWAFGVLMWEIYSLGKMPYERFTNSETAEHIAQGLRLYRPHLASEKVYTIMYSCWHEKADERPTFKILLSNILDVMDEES

In ChEMBL document CHEMBL5226337, “Pyrazolopyrimidines as anticancer agents: A review on structural and target-based approaches” (Eur J Med Chem, 2021):

Target: Tyrosine-protein kinase BTK (Homo sapiens, UniProt Q06187)
Assay: Inhibition of human BTK using biotin as a substrate assessed as decrease in fold change preincubated for 5 mins followed by substrate addition incubated for 30 mins in presence of ATP by fluorescence based assay
Details: time 35.0 min

SMILES: Nc1ncnc2c1c(-c1ccc(Oc3ccccc3)nc1)nn2C1CCCN(C(=O)CCl)C1 (stereo unspecified)
- fold change (FC): 5
